From ChEMBL document CHEMBL1134562, “Fluorosulfonyl- and bis-(beta-chloroethyl)amino-phenylamino functionalized pyrazolo[4,3-e]1,2,4-triazolo[1,5-c]pyrimidine derivatives: irreversible antagonists at the human A3 adenosine receptor and molecular modeling studies” (J Med Chem, 2001) come the findings set out here.

By UniProt entry, the sequences of proteins in these tests, tags left out. Where a name states a change or a piece, a line headed by the entry shows the natural chain unless it says otherwise.
UniProt P30542, whole entry, looked up: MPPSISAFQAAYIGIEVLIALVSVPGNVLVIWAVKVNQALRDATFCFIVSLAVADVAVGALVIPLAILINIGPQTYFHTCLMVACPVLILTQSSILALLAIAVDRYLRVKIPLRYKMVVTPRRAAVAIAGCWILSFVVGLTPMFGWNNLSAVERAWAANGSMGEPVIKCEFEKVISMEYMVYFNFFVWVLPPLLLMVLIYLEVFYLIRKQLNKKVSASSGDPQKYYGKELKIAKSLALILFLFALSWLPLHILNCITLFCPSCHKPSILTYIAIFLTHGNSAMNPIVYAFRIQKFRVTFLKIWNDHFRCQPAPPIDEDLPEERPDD
UniProt P0DMS8, whole entry, looked up: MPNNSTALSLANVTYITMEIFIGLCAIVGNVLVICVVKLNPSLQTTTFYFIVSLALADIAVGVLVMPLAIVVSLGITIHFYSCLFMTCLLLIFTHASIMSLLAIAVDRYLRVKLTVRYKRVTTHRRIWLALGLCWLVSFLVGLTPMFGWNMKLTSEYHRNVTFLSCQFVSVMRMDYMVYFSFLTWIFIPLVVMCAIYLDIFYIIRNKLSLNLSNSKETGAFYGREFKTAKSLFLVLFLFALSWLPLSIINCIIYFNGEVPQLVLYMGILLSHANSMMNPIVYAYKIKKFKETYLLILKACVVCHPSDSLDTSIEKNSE
UniProt P29275: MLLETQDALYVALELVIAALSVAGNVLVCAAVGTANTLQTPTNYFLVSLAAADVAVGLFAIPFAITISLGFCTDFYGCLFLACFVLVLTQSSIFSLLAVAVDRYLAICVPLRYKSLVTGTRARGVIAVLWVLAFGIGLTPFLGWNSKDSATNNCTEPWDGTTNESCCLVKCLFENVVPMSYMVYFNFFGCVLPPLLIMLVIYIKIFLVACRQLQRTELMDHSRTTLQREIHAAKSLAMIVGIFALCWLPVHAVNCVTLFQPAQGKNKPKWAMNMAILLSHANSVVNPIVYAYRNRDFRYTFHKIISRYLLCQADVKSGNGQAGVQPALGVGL

What all share (type): protein assay
Assay [1] has as its target Adenosine receptors; A1 & A3 (Homo sapiens) (UniProt P30542+P0DMS8). As to the kind of experiment: Relative binding affinity for human adenosine A1 and A3 receptors.
Assay [2] addresses Adenosine receptors; A2a & A3 (Homo sapiens) (UniProt P0DMS8+P29274). Put plainly: Relative binding affinity for human adenosine A2A and A3 receptors.
The target of assay [3] is Adenosine receptors; A2b & A3 (Homo sapiens) (UniProt P29275+P0DMS8). Put plainly: Relative binding of human adenosine A2b and A3 receptors.

On to `CCCn1cc2c(nc(NC(=O)Nc3ccc(OC)cc3)n3nc(-c4ccco4)nc23)n1`, for which the results for the Ratio in assay [1], in assay [2] and in assay [3] were 1500, 175 and 2570, respectively.
